Laboratory results taken from patent US9447023B2, “Curcumin and tetrahydrocurcumin derivatives” (Research Foundation of the City University of New York, priority 2006, dated 2016).

Assay: Molar extinction coefficient of curcumin analogs (UV-visible)
Type: physicochemical
Conditions: in M-1 cm-1 (unit assumed)
From the text: Each curcumin derivative is bioconjugated to create a biopolymer that can be used as an eco-friendly dye. For example, compounds 1b and 1d can be conveniently conjugated to the lysine residues of proteins, the azide and the alkyne derivatives can be attached to proteins via the ‘click’ bioconjugation reaction. Compounds 1c and 1e have the advantage that unlike most reactive groups which are used for bioconjugation, alkyne and azide groups are stable in aqueous media (Scheme 5). The absorbance and fluorescence properties of these dyes are similar to the parent molecule.
Reagent-grade solvents such as acetone and tetrahydrofuran were used without further purification. For High Performance Liquid Chromatography (HPLC), methylene chloride was used with Pure Solv™ solvent purification system. Curcumin was obtained from Acros-Organics. Copper acetate and sodium ascorbate were purchased from Sigma. Silica gel 60 F 254 plates for thin-layer chromatography (TLC) were purchased from Merck. Column chromatographic separations were carried out using silica gel (Fisher) with a particle size of 0.040-0.063 mm. Nuclear magnetic resonance (NMR) was recorded on Bruker Avance 600 (600 MHz) spectrometers. Mass spectra (ES-MS) were recorded on a LC/MS and Time Of Flight (TOF) mass spectrometer. U.V.-Visible spectra were recorded using a ChemStation Rev. A.10.01 from Agilent Technologies

## Curcumin Acrylate
  Molar Extinction Coeffecient: 46874
